The target of the first test is T1, recombinant endotheliase 1 (human), Q9UL52.
T1 chain: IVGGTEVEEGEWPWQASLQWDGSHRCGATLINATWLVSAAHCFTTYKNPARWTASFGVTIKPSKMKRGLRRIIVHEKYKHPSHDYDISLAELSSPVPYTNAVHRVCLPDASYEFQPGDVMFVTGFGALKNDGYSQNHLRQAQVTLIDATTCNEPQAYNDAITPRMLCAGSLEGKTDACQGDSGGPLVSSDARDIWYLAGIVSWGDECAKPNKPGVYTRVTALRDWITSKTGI
As to the kind of experiment: apparent Ki, inhibition of ET1, uncorrected for substrate.
As to AGKHICRGYYPDCEWQIFGT (modifications not checked) [DX-1650], the Ki was 33.6 nM.

On to AGKMRCISRDIPCSHYQIGT (modifications not checked) [DX-1637], for which the Ki stood at 8.5 nM.

On to AGQMRRKCISRDIPCVTHGTY (modifications not checked) [DX-1628], for which the Ki came to 10.2 nM.

Regarding AGKHICRGYYPDCVWQTWGT (modifications not checked) [DX-1646], the Ki amounted to 8.6 nM.

Take AGRSRVRCISRDIPCVTHGTY (modifications not checked) [DX-1629]: the Ki is 145 nM.

Consider AGQVRRYCISRDIPCVTHGT (modifications not checked) [DX-1626], for which the Ki turned out to be 16.6 nM.

A further test addresses T1, recombinant endotheliase 1 (human), …. The test is described as follows: inhibition of ET1 activity.
Take AGKHICKGYYPDCGYPGT (modifications not checked) [DX-1039]: the Ki was 103 nM.

As to AGNYMCKGYWPDCKMTGT (modifications not checked) [DX-1133], the Ki was 256 nM.

The record behind these values is US20050164945A1, “Endotheliase-1 ligands” (priority 2003, published 2005).
